Assay results reported in paper PMC4090178, “Structural and Biochemical Characterization of Human PR70 in Isolation and in Complex with the Scaffolding Subunit of Protein Phosphatase 2A” (PLoS ONE, 2014).

Key:
Assay in all cases: ITC; B''-constructs at 20–40 µM in the cell titrated with 200–300 µM Aα or Aβ constructs; 15°C; 20 mM Tris pH 7.5, 200 mM NaCl, 2 mM CaCl2; 1:1 binding model
Conditions in all cases: both partners purified
PR72 (24–529) = target: T1, PR72 (24–529) (UniProt Q06190-2 24-529)
T1 construct: PR72 (B''α2), regulatory B'' subunit of PP2A, product of PPP2R3A; residues 24–529; the end at 529 fits the PR72 isoform of 529 residues, not PR130; also called PR72 subunit (residue 24–529); B''α2; source: E. coli BL21(DE3), purified (IMAC, TEV cleavage, gel filtration); not shown: His tag, N-terminal, cleaved
T1 sequence (looked up): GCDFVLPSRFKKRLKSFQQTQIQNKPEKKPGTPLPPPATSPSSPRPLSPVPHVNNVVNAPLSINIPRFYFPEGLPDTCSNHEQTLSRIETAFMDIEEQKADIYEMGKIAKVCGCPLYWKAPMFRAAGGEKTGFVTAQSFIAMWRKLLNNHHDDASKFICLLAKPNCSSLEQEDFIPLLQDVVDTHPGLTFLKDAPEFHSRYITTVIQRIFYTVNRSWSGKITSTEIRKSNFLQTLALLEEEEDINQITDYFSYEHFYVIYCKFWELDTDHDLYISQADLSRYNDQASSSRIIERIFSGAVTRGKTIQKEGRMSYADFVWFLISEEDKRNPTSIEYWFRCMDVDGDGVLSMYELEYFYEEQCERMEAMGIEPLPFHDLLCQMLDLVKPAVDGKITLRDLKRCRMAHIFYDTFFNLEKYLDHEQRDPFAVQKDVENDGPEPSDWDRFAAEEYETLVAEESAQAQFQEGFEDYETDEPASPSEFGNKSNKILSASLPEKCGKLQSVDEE

PR70 (25–575) = target: T2, PR70 (25–575) (human, UniProt Q9Y5P8 25-575)
T2 construct: PR70 (B''β), regulatory B'' subunit of PP2A, human, product of PPP2R3B; also called B''/PR70; source: E. coli BL21(DE3), purified (IMAC, TEV cleavage, gel filtration); not shown: His tag, N-terminal, cleaved
T2 sequence (looked up): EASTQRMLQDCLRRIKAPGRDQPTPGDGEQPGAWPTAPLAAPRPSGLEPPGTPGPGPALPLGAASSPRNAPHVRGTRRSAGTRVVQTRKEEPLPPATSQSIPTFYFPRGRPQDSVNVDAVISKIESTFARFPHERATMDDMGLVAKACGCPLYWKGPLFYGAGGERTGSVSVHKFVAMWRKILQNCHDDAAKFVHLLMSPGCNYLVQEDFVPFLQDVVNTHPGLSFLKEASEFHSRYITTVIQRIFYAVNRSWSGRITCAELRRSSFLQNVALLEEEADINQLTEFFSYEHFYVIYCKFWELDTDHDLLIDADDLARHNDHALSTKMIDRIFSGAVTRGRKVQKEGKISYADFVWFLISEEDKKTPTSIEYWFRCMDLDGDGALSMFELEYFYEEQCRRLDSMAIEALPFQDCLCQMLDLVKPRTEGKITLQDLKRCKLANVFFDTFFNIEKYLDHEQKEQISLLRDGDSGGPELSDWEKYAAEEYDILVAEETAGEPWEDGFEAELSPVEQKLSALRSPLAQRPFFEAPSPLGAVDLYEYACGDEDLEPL

PR70 (105–575) = target: T3, PR70 (105–575) (human, UniProt Q9Y5P8 105-575)
T3 construct: PR70 (B''β), regulatory B'' subunit of PP2A, human, product of PPP2R3B; source: E. coli BL21(DE3), purified (IMAC, TEV cleavage, gel filtration); not shown: His tag, N-terminal, cleaved
T3 sequence (looked up): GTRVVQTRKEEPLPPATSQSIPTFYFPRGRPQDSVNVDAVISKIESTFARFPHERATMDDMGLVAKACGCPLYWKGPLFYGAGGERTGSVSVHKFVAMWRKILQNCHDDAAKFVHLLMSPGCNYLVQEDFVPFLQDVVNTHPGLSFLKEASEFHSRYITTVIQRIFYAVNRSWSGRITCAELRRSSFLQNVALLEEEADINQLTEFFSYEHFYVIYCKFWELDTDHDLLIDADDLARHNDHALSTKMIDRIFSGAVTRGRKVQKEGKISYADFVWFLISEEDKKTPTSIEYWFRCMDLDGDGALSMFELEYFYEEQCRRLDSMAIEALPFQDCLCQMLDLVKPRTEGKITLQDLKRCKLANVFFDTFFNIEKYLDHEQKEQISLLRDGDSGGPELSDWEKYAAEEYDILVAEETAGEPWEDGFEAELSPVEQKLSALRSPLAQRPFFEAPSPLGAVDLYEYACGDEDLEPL

B1: A α (HEAT1–15) (natural protein)
chain: not shown
notes: PP2A scaffolding subunit A, α isoform, product of PPP2R1A; HEAT repeats 1–15; calculated molecular weight 65.3 kD; also called full length A-subunit; scaffolding A subunit; source: E. coli BL21(DE3), purified (IMAC, TEV cleavage, gel filtration); not shown: His tag, N-terminal, cleaved
- dH (PR72 (24–529)): -10.2 ± 0.5 kcal/mol
- stoichiometry N (PR72 (24–529)): 0.94 ± 0.01
- dH (PR70 (25–575)): -22.6 ± 0.1 kcal/mol
- stoichiometry N (PR70 (25–575)): 0.84 ± 0.02
- dH (PR70 (105–575)): -19.7 ± 0.2 kcal/mol
- stoichiometry N (PR70 (105–575)): 0.85 ± 0.03
